## Ab-14 light chain CDR variants: yeast mating affinities

The target is the same throughout: PDVDLGDISGINAS, from the HR2 region of SARS-CoV-2 spike.

Ab-14 is the parent antibody, in scFv form: VH, then three GGGGS repeats, then VL. The heavy chain is unchanged in all variants.
VH: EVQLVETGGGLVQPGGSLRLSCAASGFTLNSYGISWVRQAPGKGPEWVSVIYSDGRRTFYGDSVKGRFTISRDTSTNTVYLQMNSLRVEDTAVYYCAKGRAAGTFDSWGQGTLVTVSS
VL: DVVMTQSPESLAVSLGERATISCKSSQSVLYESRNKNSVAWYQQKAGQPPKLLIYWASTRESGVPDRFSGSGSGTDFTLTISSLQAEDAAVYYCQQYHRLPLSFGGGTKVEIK

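The starting antibody came from a phage panning campaign against this peptide. AAYL50 was designed without a model: most single CDR substitutions and a random sample of double and triple ones. AlphaSeq pools MATa yeast showing the antibodies with MATalpha yeast showing the peptide. The frequency of each diploid, read from paired DNA barcodes, reflects how well the two displayed proteins bind. Scores were corrected for input abundance and mapped to Kd with protein pairs of known affinity run in the same pool. Mating was done three times.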

Variants are written as CDR1, CDR2 and CDR3 of the light chain (limits as in the source). Parent: KSSQSVLYESRNKNSVA, WASTRES, QQYHRLPLS.
The read-out is the apparent dissociation constant on a log10 scale (nM): the lower, the stronger.
A pair that was not seen in that replicate is written "ND"; this usually means weak binding, but a binder can also be missed.
As a blank, each scFv also met three strains without target: over library AAYL50, 18% of these pairings were detected, typically at 4.19 and seldom below 2.99. For each scFv, signals with the empty controls are counted beside the result, with their mean in brackets.

CDR-L1	CDR-L2	CDR-L3	replicates, log10 nM	empty controls
KSSQSVLYYSRNKNSFA	IASTRES	QQYHRLPLS	ND / 5.26 / ND	3 of 9 (4.08)
KHSQSVLYESRHKNSVA	WASQRES	QQYHRLPLS	2.95 / 2.59 / 2.72	3 of 9 (4.13)
ESSCSVLYESRNKNSVA	WASTRES	QQYHRLPLS	2.36 / 2.05 / 2.29	2 of 9 (4.14)
KSSQSVLYESMNKNSAA	WCSTRES	QQYHRLPLS	ND / ND / ND	2 of 9 (4.33)
KSSQSVLSESRRKNSVA	WASTRES	KQYHRLPLS	ND / ND / ND	1 of 9 (4.12)
KSSQSVLAESYNKNSVA	WASTRES	QQYHRFPLS	0.70 / 0.87 / 1.41	0 of 9
KSSQIVLYENRNKNSVA	WALTRES	QQYHRLPLS	0.32 / 0.71 / 0.72	0 of 9
KSAQSVLYESRNKNSVA	WADIRES	QQYHRLPLS	3.39 / ND / ND	0 of 9
KSSQSVAYESRNKLSVA	WASTMES	QQYHRLPLS	3.04 / 3.31 / 3.53	4 of 9 (4.14)
KSSQFVLYESRNFNSVA	WASTREK	QQYHRLPLS	ND / ND / ND	3 of 9 (4.56)
KSSQSVLYESRNKNSVA	WASTRES	QQYHRQPHS	ND / ND / ND	2 of 9 (4.30)
KQSQSVLYEVRNKNSVA	WASTREY	QQYHRLPLS	4.38 / ND / 2.75	0 of 9
KSSQSVLYESRNKNSVA	WASTDSN	QQYHRLPLS	ND / ND / ND	0 of 9
KSSQCVLYESRNKNSFA	WASTRES	QQYHRLPLS	ND / ND / ND	0 of 9
KGSQSVLYQSRNKNSVA	WAQTRES	QQYHRLPLS	1.80 / 1.82 / 1.84	2 of 9 (3.93)
KSSQWVLYESRNTNSVA	TASTRES	QQYHRLPLS	ND / ND / ND	0 of 9
KSSQSVLYESRNKCSVA	WAKTRES	QQYHRPPLS	ND / ND / ND	0 of 9
KPSQSVLYESRNKNSVA	WASTRES	QQYHRATLS	ND / 4.70 / ND	1 of 9 (2.96)
KSSKSVLYESRNKNSVA	WASTNES	QQEHRLPLS	ND / ND / ND	0 of 9
KSSQSVLQESRLKNSVA	WASTRED	QQYHRLPLS	0.61 / 0.82 / 0.64	2 of 9 (3.64)
KSSQSVLYESRNKNSVA	GASTRES	QQDIRLPLS	ND / ND / ND	0 of 9
KSSQSVQYESRNKNSVA	WASTRSS	QSYHRLPLS	ND / ND / ND	1 of 9 (2.97)
KSSQSVLYESRNKMSVA	WASTRES	QQLHRLPLN	1.27 / 1.45 / 1.51	1 of 9 (3.25)
KSSQSHLYYSRNKNSVA	WASTRES	QQYHRLPLH	3.07 / 3.19 / ND	2 of 9 (4.78)
KSSQSVLQSSRNKMSVA	WASTRES	QQYHRLPLS	1.79 / 1.68 / 1.79	3 of 9 (4.23)
KSSQSVLYESRNKNAVA	WASTREN	QQPHRLPLS	ND / ND / ND	1 of 9 (3.83)
KSSQSVLYEGRNKNSVE	WASTTES	QQYHRLPLS	ND / ND / ND	0 of 9
KSSQSVLYESCNYNSVA	WASTRES	QQYMRLPLS	1.69 / 1.62 / 2.12	3 of 9 (4.71)
KSSQSVDYESRNKCSVA	LASTRES	QQYHRLPLS	ND / ND / ND	0 of 9
KSFQSVLYESRNKISVA	WASTRES	QQYCRLPLS	ND / ND / ND	2 of 9 (3.34)
KSSQSVLYEGRNKNDVA	WASTRES	QQCHRLPLS	3.31 / 2.13 / 2.69	3 of 9 (3.85)
KSWQSVLYISRNKNSVA	WDSTRES	QQYHRLPLS	ND / 4.85 / 3.56	2 of 9 (3.65)
KSSQSVLYESRNKNSGK	WASTRES	QSYHRLPLS	3.93 / ND / ND	2 of 9 (3.61)
KSFQSVLYESRNKNSVA	WASTREQ	QQYNRLPLS	1.23 / 1.39 / 1.23	2 of 9 (3.84)
KSSQSVLYETRNKNSVA	WASCRES	QQYHRLPLS	2.09 / 1.95 / 2.10	5 of 9 (4.46)
KHSQSVLIESRNKNSVA	WASTRES	QQLHRLPLS	1.76 / 1.82 / 1.83	4 of 9 (4.13)
KSSQSVLYESRNKNSVA	YASTRES	QQYHRLPLS	ND / ND / 3.97	2 of 9 (3.97)
KSSQSVLFEMRNKNSVA	WASTDES	QQYHRLPLS	ND / 5.00 / ND	0 of 9
KSSQAVLYEHRNKNSVA	WASTRVS	QQYHRLPLS	2.38 / 1.95 / 1.85	1 of 9 (3.48)
KISQSVLYESRNKKSVA	WASTRED	QQYHRLPLS	0.30 / 0.55 / 0.37	2 of 9 (3.83)
KSSQSVLYEPRNKNTVA	WASTRES	QQYHRLALS	ND / ND / ND	0 of 9
KSSQSVLYESRNKNSVA	CANTRES	QGYHRLPLS	2.74 / 3.57 / 3.23	2 of 9 (3.91)
KQSQSVLYESRNKNSVA	WASTRES	QYYHDLPLS	6.16 / ND / ND	4 of 9 (4.65)
KSKQRVLYESRNKNSVA	WASTRES	QQYNRLPLS	2.36 / 2.33 / 2.52	2 of 9 (3.79)
KSSQSVEWESRNKNSVA	WRSTRES	QQYHRLPLS	2.39 / 2.52 / 2.16	6 of 9 (3.77)
KSSQSVLYEGRNKNSVA	WASMRES	QQYYRLPLS	0.87 / 1.09 / 0.87	0 of 9
KSSQSSLYESRNKNSAA	WASTRES	QVYHRLPLS	ND / ND / ND	0 of 9

A selection of 7 entries from above:

{"CDR-L1": "KSSQSVLFEMRNKNSVA", "CDR-L2": "WASTDES", "CDR-L3": "QQYHRLPLS", "replicates, log10 nM": "ND / 5.00 / ND", "empty controls": "0 of 9"}
{"CDR-L1": "KSSQSVLYESRNKMSVA", "CDR-L2": "WASTRES", "CDR-L3": "QQLHRLPLN", "replicates, log10 nM": "1.27 / 1.45 / 1.51", "empty controls": "1 of 9 (3.25)"}
{"CDR-L1": "KSSQSVLYEGRNKNSVA", "CDR-L2": "WASMRES", "CDR-L3": "QQYYRLPLS", "replicates, log10 nM": "0.87 / 1.09 / 0.87", "empty controls": "0 of 9"}
{"CDR-L1": "KSSQAVLYEHRNKNSVA", "CDR-L2": "WASTRVS", "CDR-L3": "QQYHRLPLS", "replicates, log10 nM": "2.38 / 1.95 / 1.85", "empty controls": "1 of 9 (3.48)"}
{"CDR-L1": "KSFQSVLYESRNKNSVA", "CDR-L2": "WASTREQ", "CDR-L3": "QQYNRLPLS", "replicates, log10 nM": "1.23 / 1.39 / 1.23", "empty controls": "2 of 9 (3.84)"}
{"CDR-L1": "KSSQSVLAESYNKNSVA", "CDR-L2": "WASTRES", "CDR-L3": "QQYHRFPLS", "replicates, log10 nM": "0.70 / 0.87 / 1.41", "empty controls": "0 of 9"}
{"CDR-L1": "KSSQSVLYEPRNKNTVA", "CDR-L2": "WASTRES", "CDR-L3": "QQYHRLALS", "replicates, log10 nM": "ND / ND / ND", "empty controls": "0 of 9"}

In this assay the parent's reference entry averaged 0.65; its copy inside this library read 1.68.

Source: Engelhart et al. 2022 (doi:10.1038/s41597-022-01779-4), MIT Lincoln Laboratory and A-Alpha Bio; data file from the FLAb repository.